The list shows a part of the results. Measured potencies and affinities stand elsewhere. Records with an inconclusive call do not appear. Calls of active or inactive are those of the source.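 Rule for the calls: active = falling-signal curve with half-maximal concentration at or below ten times the top tested dose; inconclusive = flat fit at 30 to 70% inhibition, or poor fit; inactive = signal rise, flat within 30%, or potency beyond limit.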

A short description of this test: Tet-On RFP internal-standard readout, HSF1 screen, dose response, cell-based, NIH3T3 R4, HSE-GFP and Tet-On RFP, cherry-pick, set 3 (AID 493085).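 Note: cells heat shocked 2 h at 42 °C with doxycycline to induce reporters; 0% = neutral control wells and -100% = didemnin B control at 400 nM.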 Conditions: NIH3T3 R4 HSE-GFP/Tet-RFP reporter, fluorescence, 48 h; at 19.5 µM (top of the series).
Regarding `O=C(OC1CN2CCC1CC2)c1cccc(Cl)c1` (stereo unspecified), the activity change, negative = inhibition is inactive: 1.77%.

(Values after PubChem BioAssay AID493085 (Broad Institute, 2011).)
